The record followed here is PubChem BioAssay AID602261 (Sanford-Burnham Center for Chemical Genomics, 2012).

By UniProt entry, the sequences of proteins in these tests, tags left out.
UniProt P49327, whole entry, looked up: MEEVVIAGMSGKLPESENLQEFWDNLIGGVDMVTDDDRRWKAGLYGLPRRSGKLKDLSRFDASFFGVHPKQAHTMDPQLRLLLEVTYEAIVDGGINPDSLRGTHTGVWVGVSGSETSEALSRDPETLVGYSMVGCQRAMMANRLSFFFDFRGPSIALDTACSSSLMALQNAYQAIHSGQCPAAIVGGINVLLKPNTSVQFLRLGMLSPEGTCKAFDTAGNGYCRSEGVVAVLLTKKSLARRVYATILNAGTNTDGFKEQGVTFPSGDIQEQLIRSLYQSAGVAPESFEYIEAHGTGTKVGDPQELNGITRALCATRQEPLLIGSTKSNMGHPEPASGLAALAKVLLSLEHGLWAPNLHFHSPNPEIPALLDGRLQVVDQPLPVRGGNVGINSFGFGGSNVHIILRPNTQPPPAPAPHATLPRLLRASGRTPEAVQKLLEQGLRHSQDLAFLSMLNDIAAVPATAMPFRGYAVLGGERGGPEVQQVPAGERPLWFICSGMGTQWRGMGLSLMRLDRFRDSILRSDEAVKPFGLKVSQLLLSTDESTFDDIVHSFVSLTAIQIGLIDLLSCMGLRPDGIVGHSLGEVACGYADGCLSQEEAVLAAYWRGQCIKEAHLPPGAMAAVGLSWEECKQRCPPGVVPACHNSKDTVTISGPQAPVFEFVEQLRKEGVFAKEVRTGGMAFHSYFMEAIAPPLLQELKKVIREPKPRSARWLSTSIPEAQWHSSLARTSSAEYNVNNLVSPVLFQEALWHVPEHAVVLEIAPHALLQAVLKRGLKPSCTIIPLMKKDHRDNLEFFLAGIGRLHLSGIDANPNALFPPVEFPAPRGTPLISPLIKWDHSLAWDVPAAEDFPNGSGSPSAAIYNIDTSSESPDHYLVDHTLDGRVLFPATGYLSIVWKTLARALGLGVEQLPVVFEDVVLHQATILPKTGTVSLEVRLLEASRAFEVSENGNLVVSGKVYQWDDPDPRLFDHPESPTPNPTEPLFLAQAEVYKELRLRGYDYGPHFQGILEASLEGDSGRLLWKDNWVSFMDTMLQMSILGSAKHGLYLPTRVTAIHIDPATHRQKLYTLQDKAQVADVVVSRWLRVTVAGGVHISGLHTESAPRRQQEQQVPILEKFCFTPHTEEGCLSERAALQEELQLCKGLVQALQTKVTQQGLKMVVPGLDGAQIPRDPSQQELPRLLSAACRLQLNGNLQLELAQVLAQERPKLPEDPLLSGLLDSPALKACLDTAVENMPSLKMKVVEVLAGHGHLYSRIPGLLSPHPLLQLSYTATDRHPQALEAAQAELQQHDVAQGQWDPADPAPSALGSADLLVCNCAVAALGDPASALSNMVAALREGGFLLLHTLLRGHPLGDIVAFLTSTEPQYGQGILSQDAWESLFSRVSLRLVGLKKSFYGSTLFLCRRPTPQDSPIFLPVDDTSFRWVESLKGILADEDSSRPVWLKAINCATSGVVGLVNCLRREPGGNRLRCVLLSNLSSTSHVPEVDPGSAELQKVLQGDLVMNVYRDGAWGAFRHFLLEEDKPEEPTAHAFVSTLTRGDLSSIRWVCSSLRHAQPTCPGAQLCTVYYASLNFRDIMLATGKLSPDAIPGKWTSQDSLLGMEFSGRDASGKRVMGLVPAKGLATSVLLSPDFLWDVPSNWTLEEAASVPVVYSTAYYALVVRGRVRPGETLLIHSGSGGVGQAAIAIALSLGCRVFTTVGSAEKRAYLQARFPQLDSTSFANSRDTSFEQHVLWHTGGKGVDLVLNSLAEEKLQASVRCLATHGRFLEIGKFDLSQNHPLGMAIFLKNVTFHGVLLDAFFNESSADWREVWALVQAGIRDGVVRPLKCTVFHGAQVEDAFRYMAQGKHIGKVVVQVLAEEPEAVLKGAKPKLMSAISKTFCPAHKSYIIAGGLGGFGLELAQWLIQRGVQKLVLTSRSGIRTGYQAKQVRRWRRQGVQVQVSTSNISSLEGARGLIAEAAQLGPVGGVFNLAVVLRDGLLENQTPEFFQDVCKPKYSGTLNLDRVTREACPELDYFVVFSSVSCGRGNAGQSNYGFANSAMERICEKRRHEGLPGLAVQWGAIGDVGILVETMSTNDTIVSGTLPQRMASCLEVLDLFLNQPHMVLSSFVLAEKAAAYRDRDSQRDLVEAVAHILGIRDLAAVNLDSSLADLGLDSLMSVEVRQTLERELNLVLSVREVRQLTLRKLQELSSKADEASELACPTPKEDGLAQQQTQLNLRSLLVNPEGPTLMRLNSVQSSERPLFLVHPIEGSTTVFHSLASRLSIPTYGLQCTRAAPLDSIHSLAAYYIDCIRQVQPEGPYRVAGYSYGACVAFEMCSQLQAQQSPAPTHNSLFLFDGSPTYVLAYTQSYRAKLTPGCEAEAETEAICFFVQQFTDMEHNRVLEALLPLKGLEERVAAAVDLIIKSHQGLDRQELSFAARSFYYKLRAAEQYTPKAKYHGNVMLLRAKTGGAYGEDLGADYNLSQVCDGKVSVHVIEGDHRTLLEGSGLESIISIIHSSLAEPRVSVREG

The inhibition is the change of the read-out against control, counted positive when it falls.

The entries are a selection whose mix differs from that of the whole data set. Activity calls are given as the source filed them.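 Rule for the calls: active = compounds whose normalised, plate-corrected inhibition of enzyme fluorescence in the single-dose primary screen is 50% or more; inactive = the rest.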

In the assay the target is Fatty acid synthase (Homo sapiens) (UniProt P49327). As to the kind of experiment: inhibition of human FAS-TE enzyme activity – biochemical, fluorescence intensity, uHTS, primary screen (AID 602261).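 Note: 0% = DMSO with enzyme and 100% = substrate without enzyme.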 Particulars: recombinant FAS-TE, OMFH fluorogenic substrate, fluorescence endpoint; at 15 µM; stronger effect = higher value.
`Cc1cc(SC(NC=O)C(Cl)(Cl)Cl)ncn1` (centres undefined): the inhibition is inactive: -13.8%.

`O=P(Nc1ccccn1)(c1cccc2ccccc12)c1cccc2ccccc12`: the inhibition was inactive: 4.9%.

As to `O=[As](O)(c1ccc(O)cc1)c1ccccc1O`, the inhibition was inactive: -4.2%.

As to `C[As](=O)(O)c1cccc(C(=O)O)c1`, the inhibition was inactive: -0.9%.

As for `O=[N+]([O-])c1ccc(-c2cc([N+](=O)[O-])c(O)c([N+](=O)[O-])c2)cc1`, the inhibition was inactive: 44.4%.

Turning to `COc1cc(C(=O)NCC2(N3CCOCC3)CCCCC2)ccc1OCC(C)C`, the inhibition is inactive: -1.7%.

Turning to `Cc1ccc2nc3c(c(C)c2c1)CC(C(Cl)Cl)S3` (centres undefined), the inhibition is inactive: 14.6%.

In the case of `Cc1ccc(OP(=O)(Nc2ccc([N+](=O)[O-])cn2)Oc2ccc(C)cc2)cc1`, the inhibition is inactive: 15.5%.

`[N-]=[N+]=NC1CCCCC1NC(=O)c1cc([N+](=O)[O-])cc([N+](=O)[O-])c1` (centres undefined): the inhibition is inactive: 9.9%.

On to `COC(=O)C1(C)COP(=O)(N2CCCCCC2)OC1` (centres undefined), for which the inhibition was inactive: -10%.

Regarding `CC(C)c1ccc(OP(=O)(Nc2ccccn2)Oc2ccccc2F)cc1` (centres undefined), the inhibition was inactive: 23.3%.

Consider `ClCCSc1nnc(-c2cccnc2)o1`, for which the inhibition was inactive: -4.3%.

As to `CC(C)NC(=O)NP(=O)(Oc1ccccc1)Oc1ccccc1`, the inhibition was inactive: -3%.

Turning to `O=C(OC1CN2CCC1CC2)c1cccc2[nH]cnc12` (centres undefined), the inhibition was inactive: -1.7%.

Consider `CCN(CC)C(=S)SC(NC=O)C(Cl)(Cl)Cl` (centres undefined), for which the inhibition was inactive: -5.7%.

As for `O=[N+]([O-])c1cc([N+](=O)[O-])c(-c2ccn[nH]2)s1`, the inhibition is inactive: -12.2%.

`O=C(OC1CN2CCC1CC2)C12CC3CC(CC(C3)C1)C2` (centres undefined): the inhibition is inactive: -5.4%.

Regarding `Cc1cc(=O)[nH]c(N[N+](=O)[O-])n1`, the inhibition was inactive: -9.7%.

Take `Cc1c2c(nc3ccccc13)SC(C(Cl)Cl)C2` (centres undefined): the inhibition is inactive: 19.4%.

As for `COc1ccc2nc(NP(=O)(c3ccccc3)c3ccccc3)sc2c1`, the inhibition is inactive: -0.2%.

Turning to `COc1cc(I)ccc1[As](=O)(O)O`, the inhibition was inactive: -2.3%.

For `O=P1(N(CCCl)CCCl)OCCCN1CCCl` (centres undefined), the inhibition is inactive: -9.3%.

`O=P1(N(CCCl)CCCl)Nc2ccccc2N1`: the inhibition is inactive: -9%.

As to `COc1ccc(N/C(=N/P(=O)(N2CCOCC2)N2CCOCC2)N2CCOCC2)cc1`, the inhibition is inactive: -5%.

On to `O=[N+]([O-])c1cc(Oc2ccc([N+](=O)[O-])cc2C(F)(F)F)cc([N+](=O)[O-])c1`, for which the inhibition was inactive: 26.7%.

For the molecule `O=[As](O)(O)c1cccnc1`, the inhibition was inactive: -4.7%.

Turning to `COc1cc(C(=O)NCC2(N3CCOCC3)CCCCC2)cc(Cl)c1OC(C)C`, the inhibition was inactive: 8.9%.

In the case of `CS(=O)(=O)c1ccc(Cl)c(NC(=O)COC(=O)C(O)(c2ccccc2)c2ccccc2)c1`, the inhibition was inactive: 0.7%.

Take `O=C(OC1CN2CCC1CC2)c1ccc(Cl)cc1` (centres undefined): the inhibition is inactive: -4%.

Consider `Cc1cccc(OCC(=O)OC2CN3CCC2CC3)c1` (centres undefined), for which the inhibition was inactive: -3.7%.

For the molecule `O=[As](O)(c1cccc(O)c1)c1cccc(O)c1`, the inhibition was inactive: -4.3%.

With `CCCOP(=S)(Nc1nc(N)cc(=O)[nH]1)OCCC`, the inhibition was inactive: -4.7%.

Turning to `Nc1cccc2c([As](=O)(O)O)cccc12`, the inhibition was inactive: -22.2%.

Regarding `Cc1ccc(NCCc2c([N+](=O)[O-])cc([N+](=O)[O-])cc2[N+](=O)[O-])cc1`, the inhibition is inactive: -95.8%.

Regarding `COc1cc(C2NCCC3(OCCO3)C2(C)C)cc(OC)c1OC` (centres undefined), the inhibition is inactive: -11.1%.

As for `CCOP(=O)(Nc1cccc2ccccc12)OCC`, the inhibition was inactive: -11.6%.

As to `CS(=O)(=O)c1cc([N+](=O)[O-])c2no[n+]([O-])c2c1`, the inhibition is inactive: 3.2%.

Consider `CCOP1(=S)c2c(C)nn(CCC#N)c2N=C(c2ccccc2F)N1C` (centres undefined), for which the inhibition is inactive: 0.1%.

For the molecule `O=P(Nc1nccs1)(Oc1ccccc1)Oc1ccccc1`, the inhibition is inactive: -1.4%.

As for `O=P(Nc1nccs1)(c1ccccc1)c1nc2ccccc2s1` (centres undefined), the inhibition is inactive: 34.5%.

Take `O=C(O)COc1ccc([As](=O)(O)O)cc1[N+](=O)[O-]`: the inhibition is inactive: -0.8%.

On to `Nc1ccccc1[As](=O)(O)c1ccccc1`, for which the inhibition was inactive: -8.2%.

Take `NC(=O)Nc1ccc([As](=O)(O)O)cc1`: the inhibition was inactive: -7.2%.

Regarding `O=[N+]([O-])c1ccc2c(c1)nnn2O`, the inhibition is inactive: -6.3%.

For the molecule `CN(C)C(=O)c1cc([N+](=O)[O-])cc2c1-c1c(cc([N+](=O)[O-])cc1[N+](=O)[O-])C2=O`, the inhibition is inactive: -32.9%.

As for `CN(C(=O)Cc1ccc(Cl)c(Cl)c1)[C@H]1CC[C@@]2(CCCO2)C[C@@H]1N1CCCC1`, the inhibition was inactive: -4%.

With `N#CCCN(C(=O)COC(=O)C(O)(c1ccccc1)c1ccccc1)c1ccc(F)cc1`, the inhibition was inactive: 2.2%.

For the molecule `CN(C(=O)Cc1ccccc1)[C@@H]1CC[C@]2(CCCO2)C[C@H]1N1CCCC1`, the inhibition was inactive: 1.4%.

In the case of `CCOP1(=S)c2c(C)nn(CCC#N)c2N=C(c2ccc(F)cc2)N1C` (centres undefined), the inhibition was inactive: -3.8%.

As for `Cc1nn(-c2ccccc2)c2c1P(=O)(N1CCOCC1)N(C)C(c1ccccc1)=N2` (centres undefined), the inhibition is inactive: -6%.

As for `Cc1ccc(C(=O)OC2CN3CCC2CC3)cc1` (centres undefined), the inhibition is inactive: -7.1%.

In the case of `CC1CCC(C(C)C)C(OP(=O)(Nc2ccccn2)c2ccccc2)C1` (centres undefined), the inhibition is inactive: 7.3%.

In the case of `O=C(/C=C/c1ccccc1)OC1CN2CCC1CC2` (centres undefined), the inhibition is inactive: 0%.

`CCCC1OP(=O)(Nc2ccccc2)OCC1CC` (centres undefined): the inhibition was inactive: -4.8%.

In the case of `CN(C)C1(CNC(=O)c2ccc(S(C)(=O)=O)cc2)CCCCC1`, the inhibition is inactive: -5.6%.

As for `O=P1(Nc2ncccn2)COc2ccccc2OC1`, the inhibition was inactive: -7.5%.

`Cc1ccc(S(=O)(=O)N(CCCN)CCCc2c(C)nc(N)[nH]c2=O)cc1`: the inhibition was inactive: -2.7%.

For `O=[As](O)(c1cccs1)c1cccs1`, the inhibition was inactive: -3.9%.

Consider `Cc1ccc(OCC(=O)OC2CN3CCC2CC3)cc1` (centres undefined), for which the inhibition is inactive: -6.3%.

`NS(=O)(=O)c1cccc(NC(=O)COC(=O)C(O)(c2ccccc2)c2ccccc2)c1`: the inhibition was inactive: 1.4%.

With `O=P1(Nc2ccc(Br)cn2)COc2ccccc2OC1`, the inhibition was inactive: 1.1%.

`Nc1cccc([As](=O)(O)c2ccccc2)c1`: the inhibition was inactive: -2.4%.

Regarding `CCOP(=O)(Nc1ccc(C)cn1)OCC`, the inhibition is inactive: -3.9%.

`CN(CCCl)Cc1cc(Cl)c(NC2=NCCN2)c(Cl)c1`: the inhibition was inactive: -11.3%.

As for `CCC1=CC2Cc3nc4ccc(Cl)cc4c(N)c3C(C1)C2` (centres undefined), the inhibition was inactive: 3.2%.

Consider `O=P1(Nc2ccccn2)COc2ccccc2OC1`, for which the inhibition is inactive: -7%.

For the molecule `CCOP(=O)(NC(=NC(C)c1ccccc1)NC(C)c1ccccc1)OCC` (centres undefined), the inhibition was inactive: -1.7%.

As for `Clc1n[nH]nc1-c1nn[nH][15n]1`, the inhibition is inactive: -14.8%.

In the case of `O=P1(N(CCCl)CCCl)NCCC(C(F)(F)F)O1` (centres undefined), the inhibition was inactive: -7%.

For the molecule `CC(C)(C)C(=O)NC(Sc1ncccn1)C(Cl)(Cl)Cl` (centres undefined), the inhibition is inactive: -2.1%.

For `COc1ccccc1CNC(=O)COC(=O)C(O)(c1ccccc1)c1ccccc1`, the inhibition was inactive: -1%.

In the case of `CC1(CBr)Cn2c(nc3ccccc3c2=O)S1` (centres undefined), the inhibition was inactive: -7.7%.

Turning to `CN(C(=O)Cc1ccc(Cl)c(Cl)c1)[C@@H]1CCCC[C@H]1N1CCCC1`, the inhibition is inactive: 2.1%.

For the molecule `CC(C)/C=N\N=C(\N)N[N+](=O)[O-]`, the inhibition was inactive: -3.9%.
